Experimental data as given in US20200325208A1.

Target: Human VEGF121/VEGF-A protein (human VEGF 121 isoform) with 6-His tag (human) (UniProt P15692)
Assay: ELISA, antigen captured by anti-His antibody on plate, HRP anti-IgG Fc detection

- EC50: 19.5 nM
Substance: TNFα/LC-GS6-VEGFR-IgG1 (from UniProt P0DOX5 2-449)
